{"source": "patent US20090053168A1", "about": "“TREATMENTS OF B-CELL PROLIFERATIVE DISORDERS” (priority 2007, published 2009)", "key": {"[1]": {"tested_on": "RPMI-8226 cells", "experiment": "Anti-proliferation assay (ATPLite, 72 h), RPMI-8226", "assay_type": "cell-based"}, "[2]": {"tested_on": "MM.1R cells", "experiment": "Anti-proliferation assay (ATPLite, 72 h), MM.1R", "assay_type": "cell-based"}, "[3]": {"tested_on": "H929 cells", "experiment": "Anti-proliferation assay (ATPLite, 72 h), H929", "assay_type": "cell-based"}, "[4]": {"tested_on": "OPM2 cells", "experiment": "Anti-proliferation assay (ATPLite, 72 h), OPM2", "assay_type": "cell-based, human", "conditions": "in combination with CGS-21680; OPM-8"}, "[5]": {"tested_on": "KSM-12-PE cells", "experiment": "Anti-proliferation assay (ATPLite, 72 h), KSM-12-PE", "assay_type": "cell-based", "conditions": "in combination with CGS-21680"}, "[6]": {"tested_on": "ANBL-6 cells", "experiment": "Anti-proliferation assay (ATPLite, 72 h), ANBL-6", "assay_type": "cell-based", "conditions": "in combination with CGS-21680"}}, "note": "Where “and” joins values, the source holds several entries; their conditions need not be identical. Identical values can stand only once. Counter-ions that a name gives are not always drawn."}
{"smiles": "O=C(O)CCCc1ccc(N(CCCl)CCCl)cc1", "note": "[Chlorambucil]", "values": [{"measurement": "synergy score", "setting": "[1]", "result": 0.43}, {"measurement": "synergy score", "setting": "[2]", "result": 1.32}]}
{"smiles": "CC[C@@]1(O)C(=O)OCc2c1cc1n(c2=O)Cc2cc3c(CN(C)C)c(O)ccc3nc2-1", "note": "[Topotecan hydrochloride]", "values": [{"measurement": "synergy score", "setting": "[3]", "result": "1.67 and 1.185"}]}
{"smiles": "CC(C)C[C@H](NC(=O)[C@H](Cc1ccccc1)NC(=O)c1cnccn1)B(O)O", "note": "[bortezomib]", "values": [{"measurement": "synergy score", "setting": "[4]", "result": 1.92}, {"measurement": "synergy score", "setting": "[5]", "result": 0.36}]}
{"smiles": "N[C@@H](Cc1ccc(N(CCCl)CCCl)cc1)C(=O)O", "note": "[melphalan]", "values": [{"measurement": "synergy score", "setting": "[6]", "result": 2.3}]}
